Biological target: 5-LOX (Glycine max, UniProt P08170)
Assay: 5-LOX immobilised on TiO2 nanotubes microreactor screening (HPLC peak area ratio)
Format: binding
Conditions: peak area ratio after and before the screening procedure
Protocol: Glutaraldehyde (GA) was used as crosslinking agent to covalently immobilise 5-LOX on the amino terminated TNTs. The NH2-TNTs was added to GA solution and shaken in a incubator at room temperature (25 °C) for 8 h. The resulting product was labelled GA-TNTs. Then GA-TNTs was merged with Tris-HCl solution (0.1 M, pH 7.0) containing a certain amount of 5-LOX, and the immobilisation was performed in a shaker at 4 °C for a certain time. After that, the immobilised 5-LOX was acquired by centrifuge to remove supernatant and comprehensively rinsed with Tris-HCl buffer solution several times to remove the unimmobilised enzyme. The 5-LOX-TNTs composites were suspended in Tris-HCl solution and stored at 4 °C before use.
The crude extract of leaves of Lonicera japonica Thunb. was added to 5% (v/v) methanol-Tris buffer solution, and dissolved by ultrasonic to prepare an incubation solution with a concentration of about 5.66 mg/mL. Then 25 mg of material immobilised with 5-LOX was combined with 1 mL of incubation solution and incubated at 25 °C for 90 min on a shaker. After incubation, the material was washed with 1 mL of buffer solution for six times. Then 1 mL of 90% (v/v) acetonitrile aqueous solution was used for ultrasonic elution for 10 min. After centrifugation, the supernatant was filtered and analysed by HPLC-MS. […]

Chains of the proteins cited; added tags and fusions are not shown.
UniProt P08170, whole entry: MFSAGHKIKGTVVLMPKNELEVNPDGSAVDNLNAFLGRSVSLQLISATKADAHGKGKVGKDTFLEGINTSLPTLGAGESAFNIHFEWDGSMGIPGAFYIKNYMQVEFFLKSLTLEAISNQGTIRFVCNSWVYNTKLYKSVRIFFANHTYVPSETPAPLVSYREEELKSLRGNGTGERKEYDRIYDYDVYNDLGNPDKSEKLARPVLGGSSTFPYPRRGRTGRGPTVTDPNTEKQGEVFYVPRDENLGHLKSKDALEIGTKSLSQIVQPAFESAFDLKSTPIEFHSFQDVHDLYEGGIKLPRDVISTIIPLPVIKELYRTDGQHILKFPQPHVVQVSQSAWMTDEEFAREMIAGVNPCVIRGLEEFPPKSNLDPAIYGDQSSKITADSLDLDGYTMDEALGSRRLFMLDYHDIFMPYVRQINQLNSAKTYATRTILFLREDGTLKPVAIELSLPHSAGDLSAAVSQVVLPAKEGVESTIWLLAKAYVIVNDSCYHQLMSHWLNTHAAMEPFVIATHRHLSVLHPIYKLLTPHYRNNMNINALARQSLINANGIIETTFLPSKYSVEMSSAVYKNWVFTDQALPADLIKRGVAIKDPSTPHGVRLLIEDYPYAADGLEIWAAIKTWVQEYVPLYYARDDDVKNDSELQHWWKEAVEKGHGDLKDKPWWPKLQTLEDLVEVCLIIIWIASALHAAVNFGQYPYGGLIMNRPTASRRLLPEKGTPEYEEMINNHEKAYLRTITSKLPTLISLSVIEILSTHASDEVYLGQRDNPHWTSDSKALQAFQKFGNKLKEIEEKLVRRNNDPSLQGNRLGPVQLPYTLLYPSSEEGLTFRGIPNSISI

`CC(Cc1ccc(O)c(O)c1)C(C)Cc1ccc(O)c(O)c1` (stereo not shown) [NDGA, Nordihydroguaiaretic acid, reference compound] was tested, and the binding rate was “over 53%”.

— PMC9518244, “TiO2 nanotube immobilised 5-lipoxygenase-mediated screening and isolation of anti-inflammatory active compounds from the leaves of lonicera japonica thunb” (Journal of Enzyme Inhibition and Medicinal Chemistry, 2022)
